Experiment: Selectivity index, ratio of IC50 for equine serum BChE to IC50 for AChE in human erythrocytes
Format: cell-based

COc1cc2c(cc1OC)C(=O)C(Cc1cc[n+](Cc3ccccc3C)cc1C(C)=O)C2 (stereo unspecified)
Ratio IC50: 674

— ChEMBL document CHEMBL4011633, “Donepezil-Based Central Acetylcholinesterase Inhibitors by Means of a "Bio-Oxidizable" Prodrug Strategy: Design, Synthesis, and in Vitro Biological Evaluation” (J Med Chem, 2017)
